Laboratory results reported in patent publication US9289509B2, “Uses of immunoconjugates targeting CD138” (Biotest AG, priority 2009, dated 2016).
Where two headings read alike, the source gives them in different places.

Test system: MOLP 8 human myeloma cells
[1] = lenalidomide 100 mg/kg per injection, total dose 1 g/kg

Nc1cccc2c1CN(C1CCC(=O)NC1=O)C2=O (stereo not shown) [Lenalidomide, reference compound]
Fractional tumor volume (FTV) (Lenalidomide alone, 100 mg/kg ip days 1-5 and 8-12, day 10): 1.00
Fractional tumor volume (FTV) (Lenalidomide alone, 100 mg/kg ip days 1-5 and 8-12, day 14): 0.82
Fractional tumor volume (FTV) (Lenalidomide alone, 100 mg/kg ip days 1-5 and 8-12, day 17): 0.45
Fractional tumor volume (FTV) (Lenalidomide alone, 100 mg/kg ip days 1-5 and 8-12, day 21): 0.42
Fractional tumor volume (FTV) (Lenalidomide alone, 100 mg/kg ip days 1-5 and 8-12, day 24): 0.55
Fractional tumor volume (FTV) (Lenalidomide alone, 100 mg/kg ip days 1-5 and 8-12, day 28): 0.46
Regressions Complete [1]: 0/6
Regressions Partial [1]: 0/6
Result [1]: Active
T/C (%) (DAY 17) [1]: 31%
Tumor free survivors day 77 [1]: 0/6

BT062
Regressions Complete (BT062 100 ug/kg): 0/6
Regressions Partial (BT062 100 ug/kg): 0/6
Result (BT062 100 ug/kg): Active
T/C (%) (DAY 17) (BT062 100 ug/kg): 35%
Tumor free survivors day 77 (BT062 100 ug/kg): 0/6
Regressions Complete (BT062 200 ug/kg): 0/6
Regressions Partial (BT062 200 ug/kg): 0/6
Result (BT062 200 ug/kg): Active
T/C (%) (DAY 17) (BT062 200 ug/kg): 14%
Tumor free survivors day 77 (BT062 200 ug/kg): 0/6
Regressions Complete (BT062 400 ug/kg): 1/6
Regressions Partial (BT062 400 ug/kg): 4/6
T/C (%) (DAY 17) (BT062 400 ug/kg): 9%
Tumor free survivors day 77 (BT062 400 ug/kg): 0/6
Fractional tumor volume (FTV) (BT062 100 alone, day 10): 0.93
Fractional tumor volume (FTV) (BT062 100 alone, day 14): 0.75
Fractional tumor volume (FTV) (BT062 100 alone, day 17): 0.52
Fractional tumor volume (FTV) (BT062 100 alone, day 21): 0.53
Fractional tumor volume (FTV) (BT062 100 alone, day 24): 0.44
Fractional tumor volume (FTV) (BT062 100 alone, day 28): 0.33
Fractional tumor volume (FTV) (BT062 200 alone, day 10): 1.02
Fractional tumor volume (FTV) (BT062 200 alone, day 14): 0.45
Fractional tumor volume (FTV) (BT062 200 alone, day 17): 0.13
Fractional tumor volume (FTV) (BT062 200 alone, day 21): 0.08
Fractional tumor volume (FTV) (BT062 200 alone, day 24): 0.11
Fractional tumor volume (FTV) (BT062 200 alone, day 28): 0.13
Fractional tumor volume (FTV) (BT062 400 alone, day 10): 0.94
Fractional tumor volume (FTV) (BT062 400 alone, day 14): 0.44
Fractional tumor volume (FTV) (BT062 400 alone, day 17): 0.09
Fractional tumor volume (FTV) (BT062 400 alone, day 21): 0.04
Fractional tumor volume (FTV) (BT062 400 alone, day 24): 0.04
Fractional tumor volume (FTV) (BT062 400 alone, day 28): 0.04
